These are literature values, as cited in paper PMC10060287 (Pharmacological Reports, 2023).

Structures are written as SMILES.

This series relates to µ-opioid receptor (µOR). Conditions: cited from earlier work.

In the case of `CN1CC[C@]23c4c5ccc(O)c4O[C@H]2[C@@H](O)C=C[C@H]3[C@H]1C5` [morphine], the functional profile entry is listed as “unbiased ligand”.
